Assay results as given in PubChem BioAssay AID1745845 (National Center for Advancing Translational Sciences (NCATS), 2022).
This is a selection; strong and weak results do not stand in their true shares. Records with an inconclusive call do not appear. Activity calls are given as the source filed them. Calls follow the shape of the dose curve; as a rule, active = well fitted inhibition curve with a large enough effect; inconclusive = small, poorly fitted or top-dose-only effect; inactive = no such curve, though single readings can be large or run the other way.

Experiment: Primary qHTS for Inhibitors of ATXN expression; also: nearly all actives have a fitted effect of over 55% in size
Details: HEK-293 ATXN2-luciferase reporter, luminescence, 24 h; at 57 µM (top of the series) unless noted
% is scaled to controls: 0 for no effect and ±100 for the full control effect.

Compound	activity change, negative = inhibition
CP(=O)(Nc1ccccn1)Oc1ccc(Cl)cc1 (centres undefined)	inactive: -10.5%
CCOC(=O)c1ccc(NP(C)(=O)Oc2ccc(OC)cc2)cc1 (centres undefined)	inactive: 5.9%
O=[N+]([O-])c1cc([N+](=O)[O-])c(O)c([N+](=O)[O-])c1.c1ccc(Oc2ccncc2)cc1	inactive: -15.2%
CCOP(C)(=S)SCC(=O)NC(C)C(=O)O (centres undefined)	inactive: 7.25%
Cc1cc(C)cc(OP(C)(=O)Nc2ccc(SC(F)(F)F)cc2)c1 (centres undefined)	inactive: -18.6%
CP(=O)(NC(=O)Nc1ccccc1)Oc1ccccc1 (centres undefined)	inactive: 5.96%
CP(=O)(Oc1ccccc1)OC(c1ccccc1)C(F)(F)F (centres undefined)	inactive: 7.61%
Cc1cccc(C)c1OP(C)(=O)Nc1ccc(SC(F)(F)F)cc1 (centres undefined)	inactive: 3.63%
CP(=O)(Nc1ccccc1Br)Oc1ccccc1 (centres undefined)	inactive: 0.0993%
COc1ccccc1OP(C)(=O)Nc1ccccc1 (centres undefined)	inactive: -15.8%
CP(=S)(Nn1cnnc1)Oc1ccccc1 (centres undefined)	inactive: -20.1%
Cc1cc(C)cc(OP(C)(N)=O)c1 (centres undefined)	inactive: -10.5%
COc1ccc(OP(C)(=O)Nc2cccc(F)c2)cc1 (centres undefined)	inactive: 1.47%
COc1ccccc1OP(C)(=O)Nc1cc(Cl)ccc1C (centres undefined)	inactive: -6.87%
COc1ccccc1OP(C)(=O)Nc1ccc(C)cc1 (centres undefined)	inactive: -2.77%
CCOC(=O)c1ccc(NP(C)(=O)Oc2ccccc2)cc1 (centres undefined)	inactive: 11.3%
O=[N+]([O-])c1ccc2c(c1)C=Nc1ccccc1O2	inactive: 0.695%
Cc1cccc(C)c1OP(C)(N)=O (centres undefined)	inactive: -3.57%
COc1ccccc1-c1ccccn1.O=[N+]([O-])c1cc([N+](=O)[O-])c(O)c([N+](=O)[O-])c1	inactive: -15.7%
CCN(CC)CCCOC(=O)C(O)(c1ccccc1)c1ccccc1	inactive: 2.26%
Cc1ccc(C)c(NP(C)(=O)Oc2ccccc2)c1 (centres undefined)	inactive: 0.29%

Compound	activity change, negative = inhibition
CP(=O)(Nc1cccc(Br)c1)Oc1ccccc1 (centres undefined)	inactive: -17.3%
Cc1cc(C)cc(OP(C)(=O)Nc2ccccn2)c1 (centres undefined)	inactive: 2.62%
CCOC(=O)c1ccc(NP(C)(=O)Oc2cc(C)cc(C)c2)cc1 (centres undefined)	inactive: -14.4%
Cc1cc(C)cc(OP(C)(=O)Nc2ccc(C)cc2C)c1 (centres undefined)	inactive: -10.4%
COc1ccccc1OP(C)(=O)Nc1cccc(Br)c1 (centres undefined)	inactive: 6.86%
CC1=NCCc2c1[nH]c1ccccc21.O=[N+]([O-])c1cc([N+](=O)[O-])c(O)c([N+](=O)[O-])c1	inactive: -0.374%
O=[N+]([O-])c1cccc([N+](=O)[O-])c1	inactive: -3.96% [at 116 µM]
CP(=O)(Nc1ccc(SC(F)(F)F)cc1)Oc1ccccc1 (centres undefined)	inactive: -23%
CCCOc1ccc(NP(C)(=O)Oc2ccc(Cl)cc2)cc1 (centres undefined)	inactive: -4.93% [at 11.3 µM]
COc1ccccc1OP(C)(=O)Nc1c(C)cccc1C (centres undefined)	inactive: 1.54%
CN1CCCCC1COC(=O)C1(O)c2ccccc2CCc2ccccc21 (centres undefined)	inactive: -0.233%
CC1=C2N=C(C=C3N=C(C(C)=C4[N-][C@@](C)([C@@H]5N=C1[C@](C)(CCC(=O)NC[C@@H](C)OP(=O)([O-])O[C@H]1[C@@H](O)[C@@H](n6cnc7cc(C)c(C)cc76)O[C@@H]1CO)[C@H]5CC(N)=O)[C@@](C)(CC(N)=O)[C@@H]4CCC(N)=O)[C@@](C)(CC(N)=O)[C@@H]3CCC(N)=O)C(C)(C)[C@@H]2CCC(N)=O.[C-]#N.[Co+3]	inactive: -28.1%
Cc1nc2ccc3ccccc3c2s1.O=[N+]([O-])c1cc([N+](=O)[O-])c(O)c([N+](=O)[O-])c1	inactive: -18.1%
O=[N+]([O-])c1cc([N+](=O)[O-])c(-c2cnn(-c3ccccc3)c2)c([N+](=O)[O-])c1	inactive: -31.9%
CN(Cc1cccnc1)C(=O)COc1ccc(Cl)c(Cl)c1.O=[N+]([O-])c1cc([N+](=O)[O-])c(O)c([N+](=O)[O-])c1	inactive: -0.862%
O=[N+]([O-])c1cc([N+](=O)[O-])c(-n2nnc3ccccc32)c([N+](=O)[O-])c1	inactive: -14.3%
Cc1ccccc1NP(C)(=O)Nc1ccccc1C	inactive: 0.0419%
O=[N+]([O-])c1cc([N+](=O)[O-])c(C(F)(F)F)c([N+](=O)[O-])c1O	inactive: 20.9%
CP(=O)(Nc1ccc2c(c1)OCCO2)Oc1ccccc1 (centres undefined)	inactive: -1.66%
CCOP(C)(=S)SCC(=O)NC(C)(CC)C(=O)O (centres undefined)	inactive: 55.5%
CP(=O)(Nc1ccc(SC(F)(F)F)cc1)Oc1ccc(F)cc1 (centres undefined)	inactive: -28.4%

Compound	activity change, negative = inhibition
C/C1=C2N=C(/C=C3N=C(/C(C)=C4\[N-][C@@](C)([C@@H]5N=C1[C@](C)(CCC(=O)NC[C@@H](C)OP(=O)([O-])O[C@H]1[C@@H](O)[C@@H](n6cnc7cc(C)c(C)cc76)O[C@@H]1CO)[C@H]5CC(N)=O)[C@@](C)(CC(N)=O)[C@@H]4CCC(N)=O)[C@@](C)(CC(N)=O)[C@@H]\3CCC(N)=O)C(C)(C)[C@@H]/2CCC(N)=O.[C-]#N.[Co+3]	inactive: -15.7%
Cc1c(C(c2ccc3c(c2)OCO3)c2c(C)n(C)n(-c3ccccc3)c2=O)c(=O)n(-c2ccccc2)n1C.O=[N+]([O-])c1cc([N+](=O)[O-])c(O)c([N+](=O)[O-])c1	inactive: 6.24%
O=[N+]([O-])c1ccc(OP2(=O)COCCO2)cc1 (centres undefined)	inactive: 1.93%
Cc1cc(-c2cccc3ccccc23)c(C)cn1.O=[N+]([O-])c1cc([N+](=O)[O-])c(O)c([N+](=O)[O-])c1	inactive: -31.9%
CN(C)CCOC(=O)C(O)(c1ccccc1)C1CCCCC1 (centres undefined)	inactive: 4.1%
COc1ccc(NP(C)(=O)Oc2ccccc2OC)cc1 (centres undefined)	inactive: -12.2% [at 11.3 µM]
COc1ccc(OP(C)(=O)Nc2cccc(Br)c2)cc1 (centres undefined)	inactive: -9.03%
CP(=O)(Nc1ccccc1)Oc1ccc(F)cc1 (centres undefined)	inactive: -1.87%
CCCCCOc1ccc(NP(C)(=O)Oc2ccc(Cl)cc2Cl)cc1 (centres undefined)	inactive: -16.5%
Cc1c([N+](=O)[O-])cc([N+](=O)[O-])c(Br)c1[N+](=O)[O-]	inactive: 1.17%
CCN(CC)CCCOC(=O)C(O)(c1ccccc1)C1CCCCC1 (centres undefined)	inactive: -3.05%
CCOC(=O)c1ccc(NP(C)(=O)Oc2ccc(F)cc2)cc1 (centres undefined)	inactive: 4.27%
Cc1cccc([N+](=O)[O-])c1[N+](=O)[O-]	inactive: -9.26% [at 116 µM]
CCOP(=O)(CC)Oc1ccc([N+](=O)[O-])cc1 (centres undefined)	inactive: -17.3%
O=C(OCCN1CCN(CCOCc2ccccc2)CC1)C(O)(c1ccccc1)c1ccccc1	inactive: 3.56%
CP(=O)(Nc1ccccc1F)Oc1ccccc1 (centres undefined)	inactive: 1.23%
COc1ccccc1OP(C)(=O)Nc1ccc(C)cc1C (centres undefined)	inactive: 5.32%
CP(=O)(Nc1ccccn1)Oc1ccccc1 (centres undefined)	inactive: -5.9%
CCc1ccc(OP(C)(=O)O)cc1	inactive: 1.17%
Cc1c(NP(C)(=O)Oc2ccc(C(C)C)cc2)c(=O)n(-c2ccccc2)n1C (centres undefined)	inactive: -13.2%
CC1=C2[N-][C@@](C)([C@@H]3N=C(C(C)=C4N=C(C=C5N=C1[C@@](C)(CC(N)=O)[C@H]5CCC(N)=O)C(C)(C)[C@H]4CCC(N)=O)[C@](C)(CCC(=O)NC[C@@H](C)OP(=O)([O-])O[C@H]1[C@@H](O)[C@@H](n4cnc5cc(C)c(C)cc54)O[C@H]1CO)[C@H]3CC(N)=O)[C@@](C)(CC(N)=O)[C@@H]2CCC(N)=O.[C-]#N.[Co+3]	inactive: -23.7% [at 25.6 µM]

Compound	activity change, negative = inhibition
COc1ccc(OP(C)(=O)Nc2ccccn2)cc1 (centres undefined)	inactive: -14.2%
CN(C)CCOC(=O)C(O)(c1ccccc1)C1CCCC1 (centres undefined)	inactive: -3.23%
COc1ccccc1OP(C)(=O)Nc1ccc(Br)cc1 (centres undefined)	inactive: 11.2%
CP(=O)(OCCOc1ccccc1)OCCOc1ccccc1	inactive: -17.6%
CP(=O)(Nc1ccc(Cl)cc1Cl)Oc1ccccc1 (centres undefined)	inactive: -0.947%
CCCCCCCCCCCCCCCC1C[N+](C)(C)CCOP(C)(=O)O1 (centres undefined)	inactive: -9.14%
COc1ccccc1OP(C)(=O)Nc1ccc(C)c(C)c1 (centres undefined)	inactive: -10.3%
COc1ccc(OP(C)(=O)Nc2ccccc2Br)cc1 (centres undefined)	inactive: 2.96%
Cc1cc(C)cc(OP(C)(=O)Nc2cccc(C(F)(F)F)c2)c1 (centres undefined)	inactive: -29%
CCOC(=O)c1ccc(NP(C)(=O)Oc2ccc(Cl)cc2)cc1 (centres undefined)	inactive: -1.94%
CP(=O)(OC12CC3CC(CC(C3)C1)C2)OC12CC3CC(CC(C3)C1)C2	inactive: -9.19%
CC(C)(C)c1ccc(OP(C)(=O)O)cc1	inactive: -1.5%
COc1ccccc1OP(C)(=O)Nc1ccccc1Br (centres undefined)	inactive: 14.2%
CP(=O)(Nc1ccc(Cl)cc1)Oc1ccc(F)cc1 (centres undefined)	inactive: -14.4%
OCCSCCO	inactive: -0.313%
O=C(OCCCN1CCCC1)C(O)(c1ccccc1)C1CCCCC1 (centres undefined)	inactive: -20.9%
COc1ccccc1OP(C)(=O)Nc1c(C)n(C)n(-c2ccccc2)c1=O (centres undefined)	inactive: 3.2%
CCc1ccc(OP(C)(=O)Nc2cccnc2)cc1 (centres undefined)	inactive: -6.23%
CP(=O)(Oc1ccccc1)N1CCOC1=O (centres undefined)	inactive: 1.7%
COc1ccc(OP(C)(=O)Nc2ccc(Br)cc2)cc1 (centres undefined)	inactive: 1.21%
CCN(CC)CC(O)COC(=O)C(O)(c1ccccc1)C1CCCCC1 (centres undefined)	inactive: -15.3%
